Test results taken from ChEMBL document CHEMBL3352716 (ACS Med Chem Lett, 2014).

Assay: Cytotoxicity against human L02 cells by MTT assay
Type: cell-based
Procedure, shortened: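 Toxicity compared on human normal liver L-02 cells and human liver cancer Bel-7402 cells run side by side. Survival curves by MTT after 72 h treatment. IC50 is the concentration inhibiting 50% of cell growth.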

O=C(O)c1ccc(N(CCCl)CCCl)cc1
IC50: > 100 µM
